Here are results for three molecules from PubChem BioAssay AID687001 (Broad Institute, 2013).

Chains of the proteins cited; added tags and fusions are not shown. Lines headed by an entry give the natural chain unless they say otherwise; changes in a name come on top.
UniProt P26447: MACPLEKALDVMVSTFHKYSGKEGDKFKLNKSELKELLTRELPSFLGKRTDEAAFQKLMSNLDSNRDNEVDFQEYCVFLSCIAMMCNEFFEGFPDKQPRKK

The list shows a part of the results, in another mix than the full data. Measured potencies and affinities stand elsewhere. Active and inactive are the calls of the source.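 The calls were made as follows: active = signal-lowering compounds whose fitted half-maximal concentration is at or below twice the top tested dose in every run; inconclusive = runs disagree, flat 30 to 70% inhibition, or poor curve fit; inactive = the rest.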

This test deals with Protein S100-A4 (Homo sapiens) (UniProt P26447). Briefly: human S100A4 peptide interaction inhibition curves – biochemical, fluorescence polarization, cherry-picked hits, dose response (AID 687001).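 Also: 0% = DMSO neutral control wells and -100% = TFP positive control wells.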 The note with it: FP, S100A4/TAMRA-myosin IIA peptide binding; at 11 µM (top of the series).
`CN(C(=O)Cc1ccccc1)C1CC[C@@]2(CCCO2)C[C@@H]1N1CCCC1` (stereo partly drawn): the activity change, negative = inhibition is inactive: -0.381%.
In the case of `Cc1ccc(S(=O)(=O)N(CCCN)CCCc2c(C)nc(N)[nH]c2=O)cc1` it was inactive: -2.75%; in that of `CN(C)P(=O)(N(C)C)n1c(Nc2ccccc2)nnc1-c1ccccc1`, inactive: -1.17%.
